Data from paper PMC4033217, “Characterization of Novel PI3Kδ Inhibitors as Potential Therapeutics for SLE and Lupus Nephritis in Pre-Clinical Studies” (Frontiers in Immunology, 2014).
Where two headings read alike, the source gives them in different places.

Test system: CD19+ B cells
Experiment: B cell cytokine release assay (anti-Ig, CpG ODN 2006, IFNα)
Format: cell-based, human

For `O=C(c1nn(-c2ccc(CN3CCOCC3)cc2)c2c1CS(=O)(=O)c1c(F)cccc1-2)N1CCOCC1`, the IC50 (read-out: IC50 IL-6, 48 h) was 88 nM and the IC50 (read-out: IC50 IL-10, 48 h) was 81 nM.
